Test results as given in US12686673B2 (Blueprint Medicines Corporation, priority 2020, dated 2026).

What follows are molecules tested against HER2 (A775_G776insYVMA) expressing Ba/F3 stable cell line (Homo sapiens, UniProt P04626, DUP772-775, cells depend on it) (assay: Cellular proliferation (Alamar Blue) assay, HER2 A775_G776insYVMA Ba/F3). Details: 72 hr, read-out: YVMA IC50.
Type: cell-based
Method: (§1) • 1. EGFR(D770_N771insSVD) expressing Ba/F3 stable cell line • 2. EGFR (A767_dupASV) expressing Ba/F3 stable cell line • 3. A431 cells • 4. EGFR (H773insNPH) expressing Ba/F3 stable cell line • 5. HER2 (A775_G776insYVMA) expressing Ba/F3 stable cell line Assay Procedure: • 1. Seed cells at 5000 for A431 and 15,000 cells for Ba/F3 in 100 μL/well in complete media (for A431: DMEM with […] and for Ba/F3 cells: RPMI with 10% FBS) in 96-well tissue culture plate. Leave outer wells without cells for background measurements. Incubate at 37 degree Celsius in […] humidified incubator for 16-18 hours. • 2. Add 0.025 ml of 5× concentration compound dilution or DMSO control. Final compound concentration range is 10-0.0005 μM prepared in 3-fold serial dilutions. Incubate for 72 hr at 37 degree Celsius in […] humidified incubator. • 3. Add 0.0125 ml Alamar Blue™ reagent to each well with multi-channel pipette and tap gently on each side of the plate to mix. Incubate for 3 hours at 37 degree Celsius in 5% CO2 humidified incubator. • 4. […] Data analysis was performed using XLfit 5.5.0.5.
Work on `C=CC(=O)Nc1ccc(F)c(Nc2nc(Nc3cnn(C)c3)ncc2-c2cncc(Cl)c2)c1` [Compound 102, N-(3-((5-(5-chloropyridin-3-yl)-2-((1-methyl-1H-pyrazol-4-yl)amino)pyrimidin-4-yl)amino)-4-fluorophenyl)acrylamide] yielded a GI50 of 35 nM.
Molecule `C=CC(=O)Nc1ccc(F)c(Nc2nc(Nc3cnn(C)c3)ncc2-c2ccc(Cl)nc2)c1` [Compound 101, N-(3-((5-(6-chloropyridin-3-yl)-2-((1-methyl-1H-pyrazol-4-yl)amino)pyrimidin-4-yl)amino)-4-fluorophenyl)acrylamide] has a GI50 of 35 nM.
For `C=CC(=O)Nc1ccc(F)c(Nc2nc(Nc3cnn(C)c3)ncc2-c2cnc(C(F)(F)F)nc2)c1` [Compound 123, N-(4-fluoro-3-((2-((1-methyl-1H-pyrazol-4-yl)amino)-2′-(trifluoromethyl)-[5,5′-bipyrimidin]-4-yl)amino)phenyl)acrylamide], the GI50 was 35 nM.

The molecules below were run against EGFR (A767_dupASV) expressing Ba/F3 stable cell line (Homo sapiens, UniProt P00533, DUP767-769, cells depend on it) (assay: Cellular proliferation (Alamar Blue) assay, EGFR A767_dupASV Ba/F3). Details: 72 hr, read-out: A767 IC50.
Type: cell-based
Method: as §1
`C=CC(=O)Nc1ccc(F)c(Nc2nc(Nc3cnn(C)c3)ncc2-c2cncc(C(F)F)c2)c1` [Compound 110, N-(3-((5-(5-(difluoromethyl)pyridin-3-yl)-2-((1-methyl-1H-pyrazol-4-yl)amino)pyrimidin-4-yl)amino)-4-fluorophenyl)acrylamide] gave a GI50 of 33 nM.
With `C=CC(=O)Nc1ccc(F)c(Nc2nc(Nc3cnn(C)c3)ncc2-c2cncc(C(F)(F)F)c2)c1` [Compound 56, N-(4-fluoro-3-((2-((1-methyl-1H-pyrazol-4-yl)amino)-5-(5-(trifluoromethyl)pyridin-3-yl)pyrimidin-4-yl)amino)phenyl)acrylamide] the GI50 was 33 nM.
For `C=CC(=O)Nc1cccc(Nc2nc(Nc3cnn(C)c3)ncc2-c2ccc(Br)cc2)c1` [Compound 274, N-(3-((5-(4-bromophenyl)-2-((1-methyl-1H-pyrazol-4-yl)amino)pyrimidin-4-yl)amino)phenyl)acrylamide], the GI50 was 33 nM.

These molecules were tested against EGFR (H773insNPH) expressing Ba/F3 stable cell line (Homo sapiens, UniProt P00533, DUP771-773, cells depend on it) (assay: Cellular proliferation (Alamar Blue) assay, EGFR H773insNPH Ba/F3). Details: 72 hr, read-out: NPH IC50.
Type: cell-based
Method: as §1
With `C=CC(=O)Nc1ccc(F)c(Nc2nc(Nc3cnn(C)c3)ncc2-c2ccc(OC)nc2)c1` [Compound 86, N-(4-fluoro-3-((5-(6-methoxypyridin-3-yl)-2-((1-methyl-1H-pyrazol-4-yl)amino)pyrimidin-4-yl)amino)phenyl)acrylamide] the GI50 was 33 nM.

What follows are molecules tested against EGFR(D770_N771insSVD) expressing Ba/F3 stable cell line (Homo sapiens, UniProt P00533, DUP768-770, cells depend on it) (assay: Cellular proliferation (Alamar Blue) assay, EGFR D770_N771insSVD Ba/F3). Details: 72 hr, read-out: D770 IC50.
Type: cell-based
Method: as §1
With `C=CC(=O)Nc1ccc(F)c(Nc2nc(Nc3cnn(C)c3)ncc2-c2ccc(Cl)nc2)c1` [Compound 101, N-(3-((5-(6-chloropyridin-3-yl)-2-((1-methyl-1H-pyrazol-4-yl)amino)pyrimidin-4-yl)amino)-4-fluorophenyl)acrylamide] the GI50 was 12 nM.
`C=CC(=O)Nc1cccc(Nc2nc(Nc3cnn(C)c3)ncc2-c2ccc(C(F)(F)F)cc2)c1F` [Compound 148, N-(2-fluoro-3-((2-((1-methyl-1H-pyrazol-4-yl)amino)-5-(4-(trifluoromethyl)phenyl)pyrimidin-4-yl)amino)phenyl)acrylamide trifluoroacetate] showed a GI50 of 33 nM.
For `C=CC(=O)Nc1cccc(Nc2nc(Nc3cnn(C)c3)ncc2-c2ccc(OC)nc2)c1` [Compound 118, N-(3-((5-(6-methoxypyridin-3-yl)-2-((1-methyl-1H-pyrazol-4-yl)amino)pyrimidin-4-yl)amino)phenyl)acrylamide trifluoroacetate], the GI50 was 33 nM.
`C=CC(=O)Nc1ccc(F)c(Nc2nc(Nc3cnn(C)c3)ncc2-c2ccc(C)nc2)c1` [Compound 66, N-(4-fluoro-3-((2-((1-methyl-1H-pyrazol-4-yl)amino)-5-(6-methylpyridin-3-yl)pyrimidin-4-yl)amino)phenyl)acrylamide] showed a GI50 of 33 nM.
In the case of `C=CC(=O)Nc1ccc(F)c(Nc2nc(Nc3cnn(C)c3)ncc2-c2cncc(C(F)(F)F)c2)c1` [Compound 56, N-(4-fluoro-3-((2-((1-methyl-1H-pyrazol-4-yl)amino)-5-(5-(trifluoromethyl)pyridin-3-yl)pyrimidin-4-yl)amino)phenyl)acrylamide], the GI50 was 33 nM.

Counter-ions that a name gives are not always drawn.
